Measured values taken from US7368433B2, “Peptides and methods for the control of obesity” (University of Florida Research Foundation, Inc., priority 2002, dated 2008).

By UniProt entry, the sequences of proteins in these tests, tags left out. Where a name states a change or a piece, a line headed by the entry shows the natural chain unless it says otherwise.
UniProt Q01727: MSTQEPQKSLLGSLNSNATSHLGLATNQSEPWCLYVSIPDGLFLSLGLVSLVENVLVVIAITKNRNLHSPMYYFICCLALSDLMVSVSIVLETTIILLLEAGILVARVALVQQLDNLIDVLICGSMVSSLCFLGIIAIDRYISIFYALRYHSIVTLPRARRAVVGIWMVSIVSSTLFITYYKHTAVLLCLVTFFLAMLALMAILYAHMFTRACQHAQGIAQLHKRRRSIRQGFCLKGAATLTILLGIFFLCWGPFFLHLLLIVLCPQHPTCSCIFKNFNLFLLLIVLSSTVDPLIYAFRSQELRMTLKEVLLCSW

Target: T1, mMC1R (Mus musculus, UniProt Q01727)
T1 construct: expressed in transfected cells; host or cells: HEK-293
Test: Functional bioassay (CRE/β-galactosidase reporter), agonist activity at mMC1R
Assay type: cell-based
Conditions: HEK-293 cells stably expressing receptor; ± standard error of the mean, at least four experiments
Procedure: For cell culture and transfection, briefly, HEK-293 cells were maintained in Dulbecco's modified Eagle's medium (DMEM) with 10% fetal calf serum and seeded 1 day prior to transfection at 1 to 2×10^6 cell/100-mm dish. Melanocortin receptor DNA in the pcDNA3 expression vector (20 μg) were transfected using the calcium phosphate method. Stable receptor populations were generated using G418 selection (1 mg/mL) for subsequent bioassay analysis.
In the functional bioassay studies, HEK-293 cells stably expressing the melanocortin receptors were transfected with 4 μg CRE/β-galactosidase reporter gene as previously described in the literature. Briefly, 5,000 to 15,000 post transfection cells were plated into 96 well Primera plates (Falcon) and incubated overnight. […] The sample absorbance, OD405, was measured using a 96 well plate reader (Molecular Devices). The relative protein was determined by adding 200 μL 1:5 dilution Bio Rad G250 protein dye:water to the 10 μL cell lysate sample taken previously, and the OD595 was measured on a 96 well plate reader (Molecular Devices). […]
The pA2 values were generated using the Schild analysis method [Schild, H. O. pA2, A New Scale for the Measurement of Drug Antagonism. […] EC50 and pA2 estimates, and their associated standard errors, were determined by fitting the data to a nonlinear least-squares analysis using the PRISM program (v3.0, GraphPad Inc.).

CC(=O)N[C@@H](Cc1cnc[nH]1)C(=O)N[C@H](Cc1ccccc1)C(=O)N[C@@H](CCCN=C(N)N)C(=O)N[C@@H](Cc1c[nH]c2ccccc12)C(N)=O [JRH279-31, Ac-His-DPhe-Arg-Trp-NH2]
EC50: 20.1 ± 0.57 nM
